Data published in patent publication US11337964B2, “Isoindoline derivative, pharmaceutical composition and use thereof” (Kangpu Biopharmaceuticals, Ltd., priority 2017, dated 2022).

Protein sequences, listed by entry. Tags and fused reporters are not part of them. Residues count along the entry.
UniProt P27815, 1-647 isoform P27815-4: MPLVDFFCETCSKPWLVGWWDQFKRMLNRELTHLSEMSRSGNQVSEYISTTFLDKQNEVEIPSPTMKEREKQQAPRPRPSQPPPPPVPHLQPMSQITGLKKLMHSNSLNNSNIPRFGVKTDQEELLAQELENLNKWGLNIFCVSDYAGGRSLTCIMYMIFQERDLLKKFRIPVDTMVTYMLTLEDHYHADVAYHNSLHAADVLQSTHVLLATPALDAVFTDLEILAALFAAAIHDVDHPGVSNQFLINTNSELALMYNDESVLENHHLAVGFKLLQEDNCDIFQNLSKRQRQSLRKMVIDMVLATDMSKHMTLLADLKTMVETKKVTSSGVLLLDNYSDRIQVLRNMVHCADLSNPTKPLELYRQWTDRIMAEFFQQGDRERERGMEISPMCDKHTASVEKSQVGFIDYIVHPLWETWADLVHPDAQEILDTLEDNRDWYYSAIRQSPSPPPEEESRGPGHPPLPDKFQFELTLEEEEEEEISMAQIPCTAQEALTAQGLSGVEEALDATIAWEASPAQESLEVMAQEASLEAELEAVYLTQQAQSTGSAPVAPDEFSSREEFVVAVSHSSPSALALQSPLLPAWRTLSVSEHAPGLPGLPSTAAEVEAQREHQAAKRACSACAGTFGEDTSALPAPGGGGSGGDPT

Molecular target: T1, PDE4A1A (Homo sapiens, UniProt P27815)
T1 construct: purchased BPS 60040
Assay: PDE4 activity inhibition assay, PDE4A1A
Format: biochemical
Settings: FAM-cAMP substrate, 30 minutes at room temperature
Protocol: The IC50 value of the inhibitory effect of the compound on PDE4A1A, PDE4B1 and PDE4D3 was tested.
Positive compound: Trequinsin (Sigma, Cat. No. T2057).
Equipment: Wallac Victor Multi-label counter (Perkin Elmer).
I. Preparing 1× reaction liquid and termination liquid;
II. PDE enzymatic reaction; • 1) The PDE was dissolved in 1× reaction solution to form 2× enzyme solution. • 2) FAM-cAMP was dissolved in 1× reaction solution to form 2× substrate solution. • 3) Echo 550 was used to transfer the corresponding volume of the compound in DMSO solution to the reaction plate. • 4) 2× enzyme solution was added into the corresponding well of the reaction plate and incubated with the compound solution at room temperature for 15 minutes. • 5) 2× substrate solution was added into the corresponding well of the reaction plate to initiate the reaction. • 6) Reaction plate was incubated at room temperature for 30 minutes and terminated by adding termination liquid, then incubated at room temperature for 60 minutes.
The inhibition rate was calculated by Excel; IC50 was calculated by GraphPad Prism.

IC50 [nM] | Compound
22 | CCOc1cc(C(CS(C)(=O)=O)N2C(=O)c3cccc(NC(C)=O)c3C2=O)ccc1OC (centres unmarked) [Reference compound 1, reference compound]
9.85 | CCOc1cc([C@@H](CS(C)(=O)=O)N2C(=O)c3cccc(NC(C)=O)c3C2=O)ccc1OC [Reference compound 2, reference compound]
